Laboratory results published in US12268704B2, “Hippo regulation of cardiac vascularity, fibrosis, and inflammation” (Baylor College of Medicine, priority 2018, dated 2025).
Entries after “also recorded” stand apart in the source; their conditions may differ.

Protein sequences, listed by entry. Tags and fused reporters are not part of them. Lines headed by an entry give the natural chain unless they say otherwise; changes in a name come on top.
UniProt P28843: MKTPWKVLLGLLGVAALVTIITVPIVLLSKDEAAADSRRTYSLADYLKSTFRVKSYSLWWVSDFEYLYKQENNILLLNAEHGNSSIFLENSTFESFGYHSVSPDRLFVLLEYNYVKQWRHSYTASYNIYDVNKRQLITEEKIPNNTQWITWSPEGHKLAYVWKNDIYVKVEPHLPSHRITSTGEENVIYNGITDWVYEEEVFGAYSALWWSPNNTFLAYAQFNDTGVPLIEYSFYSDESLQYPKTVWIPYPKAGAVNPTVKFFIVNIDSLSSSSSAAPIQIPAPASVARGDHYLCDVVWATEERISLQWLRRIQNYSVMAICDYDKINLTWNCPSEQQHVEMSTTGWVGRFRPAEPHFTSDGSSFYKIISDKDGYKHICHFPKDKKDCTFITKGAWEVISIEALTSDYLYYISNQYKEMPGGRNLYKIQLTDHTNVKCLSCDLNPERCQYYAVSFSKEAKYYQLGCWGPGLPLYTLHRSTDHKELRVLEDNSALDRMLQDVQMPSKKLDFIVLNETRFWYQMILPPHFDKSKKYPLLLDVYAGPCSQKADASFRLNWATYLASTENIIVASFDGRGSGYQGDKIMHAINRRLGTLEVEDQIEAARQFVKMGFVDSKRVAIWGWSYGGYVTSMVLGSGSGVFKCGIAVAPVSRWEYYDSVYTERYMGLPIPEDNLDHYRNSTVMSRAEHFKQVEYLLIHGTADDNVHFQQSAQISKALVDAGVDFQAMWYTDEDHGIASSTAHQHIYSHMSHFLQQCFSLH

Target: T1, Dpp4 (Mus musculus, UniProt P28843)
T1 construct: 0.01 mg/g body weight Sitagliptin was administrated to plugged female by gavage at E11.5, E12.5 and E13.5; from tissue; host or cells: Mouse embryos in utero (Wt1CreERT2; Lats1/2 f/f and controls); hearts examined at E14.5
Assay: Sitagliptin treatment of Lats1/2 CKO embryos; coronary vessel pattern by Pecam-1 staining and AngioTool quantification
Assay type: in vivo

[1] = Lats1/2 CKO E14.5 hearts treated with Sitagliptin versus controls, Pecam-1 IF
[2] = Lats1/2 CKO E14.5 hearts treated with Sitagliptin, Pecam-1

- mean lacunarity (Mean E lacunarity) [1]: suppressed; also recorded: no difference
- vessel percentage area [1]: suppressed; also recorded: no difference
- blood islands, ventral side of heart [2]: some blood islands still appeared
SMILES: N[C@@H](CC(=O)N1CCn2c(nnc2C(F)(F)F)C1)Cc1cc(F)c(F)cc1F [Sitagliptin, Sitagliptin phosphate]
- dorsal side vessel coverage phenotype [2]: suppressed; also recorded: comparable vessel coverage
